The assay addresses Heat shock protein HSP 90-beta (Homo sapiens) (UniProt P08238). In words: Binding affinity at Hsp90 C-terminal region in human SKBr3 cells. It counts as cell-based.

By UniProt entry, the sequences of proteins in these tests, tags left out.
UniProt P08238, whole entry: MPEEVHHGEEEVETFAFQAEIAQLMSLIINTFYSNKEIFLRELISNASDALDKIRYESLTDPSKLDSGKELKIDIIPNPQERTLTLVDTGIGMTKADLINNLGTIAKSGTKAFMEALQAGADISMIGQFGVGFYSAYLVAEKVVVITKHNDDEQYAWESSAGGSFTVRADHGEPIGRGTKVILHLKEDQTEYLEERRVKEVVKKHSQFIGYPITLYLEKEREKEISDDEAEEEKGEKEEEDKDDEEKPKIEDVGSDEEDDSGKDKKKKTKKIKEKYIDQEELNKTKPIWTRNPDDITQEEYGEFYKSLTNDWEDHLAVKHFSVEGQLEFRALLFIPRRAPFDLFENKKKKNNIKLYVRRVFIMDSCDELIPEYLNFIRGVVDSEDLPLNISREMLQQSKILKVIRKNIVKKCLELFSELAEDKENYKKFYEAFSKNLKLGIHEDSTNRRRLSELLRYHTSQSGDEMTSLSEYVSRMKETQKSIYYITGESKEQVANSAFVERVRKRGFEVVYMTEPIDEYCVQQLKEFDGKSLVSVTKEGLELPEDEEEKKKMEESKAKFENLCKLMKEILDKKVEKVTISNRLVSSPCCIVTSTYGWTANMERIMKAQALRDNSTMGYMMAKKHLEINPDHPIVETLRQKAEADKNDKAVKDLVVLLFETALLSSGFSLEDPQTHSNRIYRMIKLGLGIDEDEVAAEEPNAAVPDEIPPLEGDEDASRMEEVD

In turn, `CO[C@@H]1[C@@H](OC(N)=O)[C@@H](O)[C@H](Oc2ccc3c(O)c(NC(=O)c4ccc(O)c(CC=C(C)C)c4)c(=O)oc3c2C)OC1(C)C` yielded an Activity of 700 µM.

The values above are taken from ChEMBL document CHEMBL1773008 (ACS Med Chem Lett, 2010).
